Rows were chosen to be rich in hits. Some 3.7% of all compounds tested hit in one or more screens of this group.
A549 tox: counter-screen for Nrf2 inhibitors: cytotoxicity in A549 cells; AID 504648; Potency, µM (highest dose often 46 µM), inactives show at the top dose activity change, negative = cytotoxicity, most hits filed as inhibitors; A549 ARE-Fluc cells, CellTiter-Fluor viability, 18-24 h; hit rate 0.16% among 390,000; also: potency is read from the fitted curve at half-maximal effect; % is scaled to controls: 0 for no effect and ±100 for the full control effect
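A549 ARE-Fluc cells in 5% FBS OPTI-MEM, 5000 cells/well, rested 2 h then exposed to compounds in concentration-response for 18-24 h at 37 °C. Viability by CellTiter-Fluor fluorescence (Ex 405/Em 525) after 30 min; luciferase luminescence (BugLite, 15 min, RT) read afterwards.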
miR-21 reporter: miR-21 reporter, rising signal | HeLa miR-21 FLuc reporter, luciferase, 48 h | Potency, µM (doses to about 38.3 µM), inactives show at the top dose reporter change, positive = more light | 340,000 tested, under 10 active | AID 2288; active = well fitted rising curve with a large enough effect; inconclusive = small, poorly fitted or top-dose-only effect; inactive = no such curve, though single readings can be large or run the other way;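 note: % of control where 0% means no effect; miR-21 action dims this reporter so a rising signal means less miR-21 action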
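HeLa cells endogenously expressing miR-21, stably carrying CMV-driven firefly luciferase with a downstream miR-21 binding site, 2000 cells/well. Titrations up to approximately 40 uM, 48 hours; luciferase luminescence read.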
Nrf2 block: Nrf2 pathway inhibition; AID 504444; A549 ARE-Fluc reporter, luciferase luminescence, 18-24 h; hit rate 2.1% among 360,000; Potency, µM (doses to about 46 µM), for inactives: at the top dose activity change, negative = inhibition, usual class: inhibitors; also: potency is read from the fitted curve at half-maximal effect; % is scaled to controls: 0 for no effect and ±100 for the full control effect; nearly all actives have a fitted effect of over 60% in size
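Concentration-response testing used A549 ARE_Fluc cells at 5000 cells/well. Following an 18-24 h compound incubation, viability was read by fluorescence (Ex 405/Em 525) and luciferase output by luminescence.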
Nrf2 ARE act: Nrf2 pathway activation | AREc32 ARE-luciferase reporter (MCF7-derived line), luminescence, 24 h | Potency, µM (series often up to 46.1 µM), for inactives: at the top dose activation, actives largely listed as activators | hit rate 0.31% among 410,000 | AID 624171; also: potency is read from the fitted curve at half-maximal effect; % of control where 0% means no effect; nearly all actives have a fitted effect of over 65% in size
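Each well held 1000 AREc32 cells, which were incubated with compound for 24 hr at 37 deg C after overnight attachment, and ARE reporter activity was quantified by firefly luciferase luminescence.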
TCR activator: activates T cell receptor signaling | primary human leukocytes, anti-CD3, IL-2 HTRF, 48 h | AID 504894 | 330,000 tested, under 10 active | Potency, µM (series often up to 9.22 µM), for inactives: at the top dose activation of IL-2 secretion, actives largely listed as activators; also: % of control where 0% means no effect
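HTRF read-out of IL-2 secretion: europium cryptate donor excited at 320nm, d2 acceptor emission at 665nm. Cells were primary human leukocytes incubated 48 hr with compounds and a-CD3 beads, supplying TCR signal only.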
ClpP mod: qHTS Assay for Activators of ClpP; purified B. subtilis ClpP, FRET peptide cleavage, 20 min; Potency, µM (highest dose often 57.5 µM), without a hit: at the top dose activity change, negative = active; hit rate 1.9% among 340,000; ATP-dependent Clp protease proteolytic subunit (Bacillus subtilis (strain 168)), P80244; active = well fitted falling curve with a large enough effect; inconclusive = small, poorly fitted or top-dose-only effect; inactive = no such curve, though single readings can be large or run the other way; also: potency is read from the fitted curve at half-maximal effect; the source files actives as falling curves though it sought activators and does not explain the sign; nearly all actives have a fitted effect of over 65% in size
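ClpP 10 microg/mL final, pH 8 Tris/KCl buffer with BSA, glycerol, Tween-20; compound pinned in; FRET-FV substrate; RT 20 min; Ex320/Em430; ΔFRET vs ADEP 5.8 microM, DMSO, no enzyme.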
The depositor's hits bear a star; ? = inconclusive; · = no result; [ ] = another dose, or the depositor's remark. Unless noted, calls follow the shape of the dose curve; as a rule, active = well fitted curve in the direction sought with a large enough effect; inconclusive = small, poorly fitted or top-dose-only effect, or another doubt; inactive = no such curve, though single readings can be large; an effect the other way counts as inactive or inconclusive.

| Structure | A549 tox | miR-21 reporter | Nrf2 block | Nrf2 ARE act | TCR activator | ClpP mod |
| --- | --- | --- | --- | --- | --- | --- |
| Brc1ccccc1-c1nnc(-c2cccnc2)o1 | -2% | -51% | ? | 16µM* | 4% | 0% |
| Brc1ccc(-c2nnc(-c3cccnc3)o2)cc1 | 1% | · | ? | 9% | -14% | -1% |
| CN1OC[C@@H]2CN(C(=O)c3cccc4ccccc34)[C@H](c3ccccc3Br)C[C@@H]21 | · | · | · | 0% | · | -3% |
| Cc1cccc(C)c1OC(=O)c1ccccc1 | 0% | · | 0% | 0% | -6% | · |
| Cc1nc2ccc(NC(=O)N3CCSCC3)cc2nc1C | 1% | -8% | 5% | -1% | -21% | 25µM* |
| Cc1nc2ccc(NC(=O)N3CCSCC3)cc2s1 | 0% | -30% | 1% | 0% | 1% | 1% |
| CC(C)CS(=O)(=O)c1oc(-c2ccc(F)cc2)nc1S(=O)(=O)c1ccccc1 | ? | ? | 23µM* | -6% | · | -9% |
| O=C(Nc1nc(-c2cc(F)ccc2F)cs1)C1=NN(c2ccccc2)C(=O)CC1 | -1% | 0% | 8% | 11% | 4% | · |

Continued:
| Structure | A549 tox | miR-21 reporter | Nrf2 block | Nrf2 ARE act | TCR activator | ClpP mod |
| --- | --- | --- | --- | --- | --- | --- |
| COc1ccc(-c2csc(NC(=O)C3=NN(c4ccccc4)C(=O)CC3)n2)cc1 | ? | ? | 21µM* | -1% | · | · |
| CCCNC(=O)c1ccccc1NS(=O)(=O)c1ccc(OC)c(OC)c1 | -3% | -1% | -6% | 0% | 0%[46.1 µM] | 32µM* |
| COc1ccc(-c2csc(NC(=O)c3ccccc3NS(=O)(=O)c3ccc(C)cc3)n2)cc1 | ? | 30% | 16µM* | 6% | -4%[46.1 µM] | ? |
| COc1ccc(-c2csc(NC(=O)c3cc(C)oc3C)n2)cc1OC | -2% | 6% | ? | 0% | -1% | -9% |
| COc1ccc(S(=O)(=O)Nc2ccccc2C(=O)Nc2nc(-c3ccc(F)cc3)cs2)cc1OC | ? | ? | ? | 7% | -7%[46.1 µM] | 16µM* |
| O=C(/C=C/Nc1ccccc1O)c1ccco1 | -10% | -62% | 4% | 11µM* | 16% | · |
| O=C(/C=C/Nc1ccccc1Oc1ccccc1)c1ccco1 | -3% | -30% | 7% | ? | -4% | · |
| O=C(/C=C/C=C/c1ccccc1)c1ccco1 | -2% | -37% | 29% | 11µM* | 2% | -1% |

4 of the entries above in order of the Nrf2 ARE act value, low to high:
molecule | Nrf2 ARE act
CC(C)CS(=O)(=O)c1oc(-c2ccc(F)cc2)nc1S(=O)(=O)c1ccccc1 | -6%
COc1ccc(-c2csc(NC(=O)C3=NN(c4ccccc4)C(=O)CC3)n2)cc1 | -1%
CCCNC(=O)c1ccccc1NS(=O)(=O)c1ccc(OC)c(OC)c1 | 0%
COc1ccc(-c2csc(NC(=O)c3ccccc3NS(=O)(=O)c3ccc(C)cc3)n2)cc1 | 6%

Other records follow.
| Structure | A549 tox | miR-21 reporter | Nrf2 block | Nrf2 ARE act | TCR activator | ClpP mod |
| --- | --- | --- | --- | --- | --- | --- |
| O=C(/C=C/c1ccc(Br)cc1)c1ccco1 | -5% | -4% | -7% | 4% | -1% | · |
| O=C(/C=C/Nc1ccc(F)cc1F)c1ccco1 | ? | 2% | ? | 6.3µM* | -3% | · |
| O=C(/C=C/Nc1ccc(Br)cc1F)c1ccco1 | -5% | 23% | ? | ? | 4% | · |
| CC1CCC2(C1)N=C(Nc1nc3ccccc3o1)NC1=C2C(=O)CCC1 (configuration not stated) | -4% | · | -8% | · | · | · |
| CCSc1ncc(Cl)c(C(=O)Nc2ccc(S(=O)(=O)N3CCC(C)CC3)cc2)n1 | 16% | 29% | ? | -1% | · | 4% |
| O=C(Nc1ccc(Cc2ccncc2)cc1)c1ccc(S(=O)(=O)N2CCCC2)cc1 | -20% | 26% | 16µM* | 2% | 1% | · |
| O=C(Nc1ccc(S(=O)(=O)N2CCCCC2)cc1)c1ccc(Cl)nc1 | -12% | · | 18µM* | 0% | -3% | 1% |
| O=C(Nc1cccc(S(=O)(=O)N2CCCCCC2)c1)c1ccc(Cl)nc1 | ? | · | 21µM* | 3% | 14% | · |

Remaining list, next part.
| Structure | A549 tox | miR-21 reporter | Nrf2 block | Nrf2 ARE act | TCR activator | ClpP mod |
| --- | --- | --- | --- | --- | --- | --- |
| O=C(Nc1ccc(S(=O)(=O)N2CCCCC2)cc1)c1ccncc1 | -1% | 10% | ? | 0% | -4% | -5% |
| CSc1ncc(Cl)c(C(=O)Nc2ccc(S(=O)(=O)N3CCC(C)CC3)cc2)n1 | -9% | ? | 21µM* | 0% | · | 0% |
| O=C(Nc1cccc(S(=O)(=O)Nc2ccccc2Cl)c1)c1ccc(Cl)nc1 | -15% | ? | 5.2µM* | -1% | -1%[46.1 µM] | -1% |
| O=C(Nc1cccc(S(=O)(=O)N2CCCCC2)c1)c1ccc(Cl)nc1 | -7% | · | 21µM* | 0% | · | 0% |
| CC(C)c1ccc(N(CC(=O)O)S(=O)(=O)c2ccc3[nH]c(=O)c(=O)[nH]c3c2)cc1 | 14% | -2% | · | 0% | · | -13% |
| OCCNc1c2ccccc2nc2c(F)c(F)c(F)c(F)c12 | 7% | -8% | 5% | 11µM* | -5%[46.1 µM] | 1% |
| CN(C)CCCNc1c2ccccc2nc2ccccc12 | 8.2µM* | 29% | 8.2µM* | -1% | 0% | · |
| C=CCNC(=S)Nc1ccc2nsnc2c1 | 8% | -1% | -6% | 0% | ? | 28µM* |

One compound at a time (already shown). Order of screens: A549 tox, miR-21 reporter, Nrf2 block, Nrf2 ARE act, TCR activator, ClpP mod
Shown for O=C(Nc1cccc(S(=O)(=O)N2CCCCC2)c1)c1ccc(Cl)nc1 = -7%, ·, 21µM*, 0%, ·, 0%
Shown for CC(C)c1ccc(N(CC(=O)O)S(=O)(=O)c2ccc3[nH]c(=O)c(=O)[nH]c3c2)cc1 = 14%, -2%, ·, 0%, ·, -13%

Next section.
The line under a structure holds: A549 tox, miR-21 reporter, Nrf2 block, Nrf2 ARE act, TCR activator, ClpP mod
> COc1ccc2c(c1)C1=NN(/C(C)=C/C(C)=O)C(c3ccc(F)cc3)C1CC2 (configuration not stated)
    -5%, -42%, 6%, 27%, -5%[46.1 µM], 20µM*
> COc1cc2c(cc1OC)C(c1ccc(N(C)C)cc1)CC(=O)N2 (configuration not stated)
    1%, -7%, ?, 4%, 4%, 10µM*
> Cc1cccc(NC(=O)c2sc3cccc(Cl)c3c2Cl)c1
    ?, -57%, ?, 10%, ·, -15%
> CC(=O)c1c(C)[nH]c(C(=O)CSc2ncnc3sc(-c4ccccc4)cc23)c1C
    -7%, -10%, 5.2µM*, 0%[9.22 µM], -2%[46.1 µM], 8%
> CC(=O)c1c(C)[nH]c(C(=O)CSc2nnc(-c3ccccc3)o2)c1C
    -14%, -13%, 21µM*, 0%, 2%, -1%
> CCOc1cccc(CNC(=O)c2ccc(N3CCCC3)c(NC(=O)NCc3ccc(F)cc3)c2)c1
    -7%, 8%, ·, -1%, ·, -4%
> CCCCCNc1nc(-c2ccccc2)nc(-n2ccnc2)n1
    0%, 0%, -6%, 0%, ·, 25µM*
> CCCCNc1nc(N(C)c2ccccc2)nc(-n2ccnc2)n1
    -5%, 21%, ?, 1%, 3%, -1%
> c1ccc(-c2nc(N3CCCCCC3)nc(-n3ccnc3)n2)cc1
    7%, 1%, 3%, 3%, 4%, 0%
> c1ccc(-c2nc(N3CCN(c4ccccc4)CC3)nc(-n3ccnc3)n2)cc1
    -24%, -7%, 4.6µM*, 0%, -3%, -6%
> COc1ccc(C)cc1NC(=O)CCC(=O)Nc1ccc2nc(N3CCN(C)CC3)cc(C)c2c1
    -27%, -3%, -29%, 0%, 4%, 28µM*
> Cc1cc(N2CCN(C)CC2)nc2ccc(NC(=O)CCC(=O)NCc3ccco3)cc12
    20%, -18%, 6%, 0%, -4%, 22µM*
> CCN1CCN(c2cc(C)c3cc(NC(=O)CCC(=O)Nc4ccc(OC)c(OC)c4)ccc3n2)CC1
    -2%, 4%, -9%, 2%, 6%, 4%
> O=C(NCCCn1ccnc1)c1ccc(Br)s1
    -5%, -5%, -29%, 1%, 0%, -1%
> COc1ccc(-c2ccc(=O)n(CC(=O)NCCc3ccccc3)n2)cc1
    13%, 7%, ·, -1%, ·, -12%
